From US5298414A (priority 1989, dated 1994)

The chains behind the UniProt entries cited, without tags or fusion partners. Where a name states a change or a piece, a line headed by the entry shows the natural chain unless it says otherwise.
UniProt Q02198: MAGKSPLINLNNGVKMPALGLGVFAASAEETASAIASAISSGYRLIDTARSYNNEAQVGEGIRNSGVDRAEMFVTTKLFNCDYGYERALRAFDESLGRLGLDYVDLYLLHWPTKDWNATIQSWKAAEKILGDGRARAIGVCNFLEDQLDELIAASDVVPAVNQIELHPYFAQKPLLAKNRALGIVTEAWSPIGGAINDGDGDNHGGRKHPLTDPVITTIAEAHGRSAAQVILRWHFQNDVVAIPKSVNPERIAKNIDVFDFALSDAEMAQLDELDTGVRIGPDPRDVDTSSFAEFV

How the values were obtained:
[1] = molecular target: morphine dehydrogenase (MDH) (Pseudomonas putida, UniProt Q02198); test: Substrate analogues of MDH (Example 3, NADP+ reduction at 340 nm); format: biochemical, Pseudomonas putida MlO; details: substrate 2 mM, glycine-NaOH pH 10, 5 μg purified MDH, 2 mM NADP, 30° C.
AMCE and MDH = test: Coupled AMCE/MDH spectrophotometric assay for the detection of heroin; details: pH 10, 2 mM NADP, 0.6 mg AMCE, 2.8 μg MDH, U = μmol. NADPH/min

In the case of CC(=O)Oc1ccc2c3c1O[C@H]1[C@@H](OC(C)=O)C=C[C@H]4[C@@H](C2)N(C)CC[C@@]341, the “ability to serve as MDH substrate” value [1] is reported as “completely inactive”, the Activity (AMCE and MDH; heroin 0.25 mM) is reported as 0.03 U × 10^3 and the Activity (AMCE and MDH; heroin 0.5 mM) is reported as 0.08 U × 10^3. For the same molecule, the Activity (AMCE and MDH; heroin 0.75 mM) was 0.2 U × 10^3, the Activity (AMCE and MDH; heroin 1.0 mM) was 0.6 U × 10^3 and the Activity (AMCE and MDH; heroin 1.5 mM) was 0.7 U × 10^3.
